Yeast UUG start – alters start codon recognition fidelity in yeast. S. cerevisiae UUG-firefly luciferase reporter, luminescence/redox ratio. 350,000 tested, 0.13% active. activity score, % at 18.7 µM. AID 602363;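 active means replicate mean at a twofold rise or more, about +100% in these data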;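 further: firefly luciferase made from a UUG start codon reports start codon fidelity; reporter light over untreated wells divided by growth signal over untreated wells; some hits fall short of that in this replicate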
TbMetRS inhib – blocks T. brucei methionyl-tRNA synthetase activity; purified T. brucei MetRS, ATP depletion, Kinase-Glo luminescence; inhibition, % at 11.9 µM; 360,000 compounds, 0.4% hits; AID 624268;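 active = inhibition above a per-plate cutoff of the control wells' mean inhibition plus 3 SD, cut at about 5.5% in these data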;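 also: 0% = DMSO wells median and 100% = median of wells with control inhibitor compound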
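Material – parasite MetRS enzyme · Medium – HEPES-MgCl2-KCl buffer plus DTT, spermine, BSA, pyrophosphatase · Reagent – ATP, methionine and E. coli bulk tRNA substrates · Times – 15 min enzyme-compound preincubation, 2 h reaction, 10 min detection, 25 °C · Measured by – luminescence of leftover ATP · Evaluation – percent inhibition relative to median high and low control wells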
Arr AP2 block – blocks beta-arrestin peptide binding to AP2 adaptin | FITC-arrestin peptide / GST-AP2 beads, flow cytometry; AP2 beta2 appendage carries R879A mutation | inhibition, % at 10 µM | 340,000 compounds, 0.31% hits | AID 504490;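 active = inhibition above a set limit, near 3 SD of compounds lacking own fluorescence, cut at about 54% in these data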;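 also: plate controls were DMSO wells for no effect and 5 µM unlabelled arrestin peptide for full effect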
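Measured by: flow cytometry, FL1 (488/535 nm); Material: AP2 appendage R879A on GSH beads; Evaluation: percent response; Timing: pre-incubation 12 min, peptide binding 1 h, room temperature; Also added: 50 nM FITC-arrestin peptide; Medium: PBS with 0.05% Tween 20 and 0.1% BSA.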
DSG3 Ab inh – inhibitors of pemphigus antibody binding to human desmoglein-3. P32926. DSG3-coupled beads, scFv-anti-DSG3-GFP binding, flow cytometry; hits give low values. binding (percent of control), % at 10 µM. 310,000 compounds, 0.48% hits;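 active = binding more than 3 SD below its plate's average and above zero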;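 also: hits lower antibody fragment binding to DSG3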
Rce1 inh – yeast Ras-converting enzyme inhibition. 290,000 compounds, 0.27% hits. calls only. yeast membranes, quenched prenylated peptide cleavage fluorescence;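 active = fall in fluorescence gain of 50% or more versus controls, with final raw signal at or below 3038400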;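 also: plate controls were neutral control wells for no effect and wells lacking membranes for full effect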
Tb MetRS conf – confirmation of Trypanosoma brucei MetRS inhibitors; T. brucei MetRS enzyme, luminescence (ATP depletion); 1,400 compounds, 93% hits; inhibition, % at 11.9 µM; shares compounds with TbMetRS inhib; in the data active = inhibition above about 7%
Jurkat cytotox – counter-screen for T. brucei MetRS inhibitors: Jurkat cell cytotoxicity; shares compounds with TbMetRS inhib; Jurkat cells viability, ATP luminescence; 1,400 compounds, 12% hits; inhibition, % at 8.3 µM; in the data active = inhibition above about 15%;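 also: 0% = vehicle and 100% = reference inhibitor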
Tb MetRS inh FP – T. brucei MetRS inhibition, orthogonal assay; shares compounds with TbMetRS inhib; purified T. brucei MetRS, fluorescence polarization; inhibition, % at 11.9 µM; 1,400 compounds, 44% hits; AID 651607; in the data active = inhibition above about 17%;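 also: 0% = vehicle wells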
An asterisk follows results filed as active; i = inactive; nt = no result. A selection: hits, their analogues and other compounds. The true share with any hit is near 1.2%.

no. | canonical_smiles | Yeast UUG start | TbMetRS inhib | Arr AP2 block | DSG3 Ab inh | Rce1 inh | Tb MetRS conf | Jurkat cytotox | Tb MetRS inh FP
1 | O=C(CN1C(=O)/C(=C2\SC(=S)N(CCS(=O)(=O)O)C2=O)c2ccccc21)Nc1cccc(Br)c1 | 1.8 | 19.2* | 0.2 | 44.7* | i | 19.7* | -4.8 | 0.8
2 | O=C(CN1C(=O)/C(=C2/SC(=S)N(CCS(=O)(=O)O)C2=O)c2ccccc21)Nc1cccc(C(F)(F)F)c1 | -8.8 | 42.1* | -7.0 | 82.3* | nt | 13.8* | 4.7 | 2.1
3 | COCCN1C(=O)/C(=C2/C(=O)N(CC(=O)Nc3ccccc3Cl)c3ccccc32)SC1=S | -9.6 | -0.8 | 1.1 | 104.6 | i | nt | nt | nt
4 | O=C(CSc1n[nH]c(-c2ccc(Br)cc2)n1)NC1CCCC1 | -13.2 | 12.5* | -7.6 | nt | nt | 41.4* | 0.8 | 13.6
5 | COc1ccc(CN2CCN(Cc3c[nH]c4ccccc34)CC2CCO)c(F)c1 (stereo not given) | 1.2 | 21.6* | 29.7 | 104.1 | i | 41.6* | 2.6 | 13.7
6 | COc1cc(CN2CCN(Cc3c[nH]c4ccccc34)CC2CCO)cc(OC)c1 (stereo not given) | -7.5 | 0.3 | 11.8 | 99.8 | i | nt | nt | nt
7 | CC=Cc1ccc2n(c1=O)C[C@@H]1[C@@H](CO)[C@H](C(=O)N(C)C)[C@H]2N1CC1CCOCC1 (mixture of isomers) | -3.7 | nt | nt | nt | nt | nt | nt | nt
8 | COc1ccc(OC)c(C2C(C#N)=C(N)Oc3cc(N)ccc32)c1 (stereo not given) | -14.8 | 35.9* | 0.3 | nt | i | 3.7 | 12.2 | 3.6

Next part, starting with the last three of the part before.
no. | canonical_smiles | Yeast UUG start | TbMetRS inhib | Arr AP2 block | DSG3 Ab inh | Rce1 inh | Tb MetRS conf | Jurkat cytotox | Tb MetRS inh FP
6 | COc1cc(CN2CCN(Cc3c[nH]c4ccccc34)CC2CCO)cc(OC)c1 (stereo not given) | -7.5 | 0.3 | 11.8 | 99.8 | i | nt | nt | nt
7 | CC=Cc1ccc2n(c1=O)C[C@@H]1[C@@H](CO)[C@H](C(=O)N(C)C)[C@H]2N1CC1CCOCC1 (mixture of isomers) | -3.7 | nt | nt | nt | nt | nt | nt | nt
8 | COc1ccc(OC)c(C2C(C#N)=C(N)Oc3cc(N)ccc32)c1 (stereo not given) | -14.8 | 35.9* | 0.3 | nt | i | 3.7 | 12.2 | 3.6
9 | COc1cc(C2C(C#N)=C(N)Oc3cc(C)n(CCc4ccccc4)c(=O)c32)cc2c1OCO2 (stereo not given) | -11.7 | 85.3* | 14.2 | 87.9 | nt | 11.1* | -0.5 | 6.3
10 | COc1ccc(OC)c(C2C(C#N)=C(N)Oc3cc(C)n(Cc4ccccn4)c(=O)c32)c1 (stereo not given) | -5.0 | 89.0* | -7.6 | 100.0 | i | 14.8* | -8.1 | 9.7
11 | Cc1cc2c(c(=O)n1CCc1ccccc1)C(c1ccco1)C(C#N)=C(N)O2 (stereo not given) | 4.3 | 0.2 | 3.6 | nt | i | nt | nt | nt
12 | COc1ccc(OC)c(C2C(C#N)=C(N)Oc3cc(C)[nH]c(=O)c32)c1 (stereo not given) | -9.1 | 13.2* | 3.8 | 92.8 | i | 4.0 | -3.9 | 0.5
13 | COc1ccc(S(=O)(=O)N(C)C[C@H]2Oc3ccc(NC(=O)C4CC4)cc3CC(=O)N([C@H](C)CO)C[C@@H]2C)cc1 | 8.4 | nt | nt | nt | nt | nt | nt | nt
14 | C[C@H](CO)N1C[C@H](C)[C@H](CN(C)S(=O)(=O)c2ccccc2)Oc2ccc(NS(=O)(=O)c3ccccc3)cc2C1=O | 16.6 | nt | nt | nt | nt | nt | nt | nt
15 | Cc1[nH]c2ccccc2c1/C=N/Nc1ccc([N+](=O)[O-])cc1 | nt | 9.6* | -0.3 | nt | i | 12.2* | 9.1 | 71.0*
16 | CCN(CC)S(=O)(=O)c1cc(C(=O)N(C)CC(=O)Nc2ccc(Cl)cc2)ccc1Cl | nt | 43.4* | -12.1 | 123.3 | i | 57.3* | 1.3 | 23.7*
17 | C#CCNC(=O)C1=C[C@@H](c2ccc(C#C)cc2)[C@H](CCCO)[C@@H](OCC)O1 | -8.7 | -0.3 | -4.5 | 94.6 | i | nt | nt | nt
18 | CCO[C@@H]1OC(C(=O)NCc2nc3ccccc3[nH]2)=C[C@H](C2CC2)[C@H]1CCCO | -26.7 | 5.3 | -4.6 | 98.2 | i | nt | nt | nt
19 | CCO[C@H]1OC(C(=O)NCc2nc3ccccc3[nH]2)=C[C@@H](c2ccc(Br)cc2)[C@@H]1CCCO | -14.9 | 37.8* | -8.3 | 92.9 | i | 80.4* | -3.0 | 56.6*
20 | CCO[C@@H]1OC(C(=O)NCc2nc3ccccc3[nH]2)=C[C@H](C(C)(C)C)[C@H]1CCCO | -7.5 | 6.4* | 33.1 | 104.1 | i | 32.9* | 71.3* | 13.2
21 | C#Cc1ccc([C@H]2C=C(C(=O)NCc3nc4ccccc4[nH]3)O[C@@H](OCC)[C@@H]2CCCO)cc1 | -4.3 | 12.2* | 34.4 | 103.3 | i | 36.0* | 2.7 | 17.0*
22 | COC(=O)C[C@H]1C[C@@H]2c3cc(NS(=O)(=O)c4ccccc4)ccc3O[C@@H]2[C@@H](CO)O1 | 6.2 | nt | nt | nt | nt | nt | nt | nt
23 | NC1=NC(=O)/C(=C\c2ccc(-c3ccc(Cl)cc3)o2)S1 | -19.2 | 9.1* | 27.0 | 88.4 | i | 34.5* | 21.8* | 48.6*
24 | COCC(=O)Nc1ccc2c(c1)OC[C@@H](C)N(Cc1cc(-c3ccccc3)on1)C[C@@H](C)[C@H](OC)CN(C)C2=O | 1.4 | nt | nt | nt | nt | nt | nt | nt
25 | Cc1cc(N2C(=O)C(O)=C(C(=O)c3ccco3)C2c2ccc(O)cc2)no1 (stereo not given) | -18.7 | -0.4 | 8.1 | 107.6 | i | nt | nt | nt
26 | Cc1cc(N2C(=O)C(O)=C(C(=O)c3ccco3)C2c2ccc(Cl)cc2)no1 (stereo not given) | -4.9 | 6.1* | -6.6 | 87.8 | i | 3.8 | 6.0 | -3.4
27 | CCCCNC(=O)N1CCC(CCC(=O)N(C)Cc2ccccc2)CC1 | -10.1 | -0.3 | 0.5 | 108.3 | i | nt | nt | nt
28 | CCOC(=O)CNC(=O)N1CCC(CCC(=O)N(C)Cc2ccccc2)CC1 | 3.4 | 5.7* | 7.1 | 91.1 | i | 2.9 | -6.6 | -2.9
29 | O=C(NCc1cc(Cl)cc(Cl)c1)c1ccc2nc([C@H]3C[C@H](O)[C@@H](CO)O3)[nH]c2c1 | -4.5 | 22.0* | nt | nt | nt | 48.5* | -2.1 | 33.2*
30 | CCCc1cc(=O)oc2cc(C)cc(OCC(=O)NC(Cc3c[nH]c4ccc(O)cc34)C(=O)O)c12 (stereo not given) | -1.2 | 7.0* | -0.1 | nt | i | 11.9* | -2.6 | -1.4
31 | CCc1cc(=O)oc2cc(C)cc(OCC(=O)NC(Cc3c[nH]c4ccc(O)cc34)C(=O)O)c12 (stereo not given) | -15.3 | 6.6* | -5.1 | 102.1 | i | 9.7* | 7.5 | 4.0
32 | CCc1cc(=O)oc2cc(C)cc(OC(C)C(=O)NC(Cc3c[nH]c4ccc(O)cc34)C(=O)O)c12 (stereo not given) | -3.3 | 5.8* | 6.8 | nt | i | 13.4* | -5.8 | 5.3
33 | CCCCc1cc(=O)oc2cc(OCC(=O)NC(Cc3c[nH]c4ccc(O)cc34)C(=O)O)ccc12 (stereo not given) | 5.6 | 1.6 | 2.2 | 90.5 | i | nt | nt | nt
34 | CCc1cc(=O)oc2cc(C)cc(OCC(=O)NC(Cc3ccc(Cl)cc3)C(=O)O)c12 (stereo not given) | -1.4 | -0.5 | -8.6 | 98.1 | i | nt | nt | nt
35 | C[C@@H]1CCCCO[C@H](CN(C)C(=O)c2ccncc2)[C@@H](C)CN([C@H](C)CO)C(=O)c2cc(NC(=O)Cc3ccccc3)ccc2O1 | 2.7 | nt | nt | nt | nt | nt | nt | nt

Random excerpt: 2 compounds from above, in no set order.
no. | canonical_smiles | Yeast UUG start | TbMetRS inhib | Arr AP2 block | DSG3 Ab inh | Rce1 inh | Tb MetRS conf | Jurkat cytotox | Tb MetRS inh FP
35 | C[C@@H]1CCCCO[C@H](CN(C)C(=O)c2ccncc2)[C@@H](C)CN([C@H](C)CO)C(=O)c2cc(NC(=O)Cc3ccccc3)ccc2O1 | 2.7 | nt | nt | nt | nt | nt | nt | nt
34 | CCc1cc(=O)oc2cc(C)cc(OCC(=O)NC(Cc3ccc(Cl)cc3)C(=O)O)c12 (stereo not given) | -1.4 | -0.5 | -8.6 | 98.1 | i | nt | nt | nt

Compound activity deposited in PubChem BioAssay by several laboratories.
